Legend:
[1] = Hygroscopicity at room temperature (weight gain and visual phase transition after 24 hours at controlled RH); type: physicochemical; details: for Phase transition: visual observation
Procedure: Hygroscopicity of salts of invention were measured by placing 20-50 mg of the sample in an uncapped scintillation vial. The vial was stored at ambient temperature in a Pyrex brand desiccator (VWR, International, CT). […] The relative humidity was confirmed using a digital hygrometer pen (VWR International, CT). An empty scintillation vial was also placed in the desiccator as a control. […] Visual observation of phase transition was also noted.

[2] = Glass transition temperature (Tg) by modulated differential scanning calorimetry (mDSC); type: physicochemical; details: precipitated salts of Compound 1; for Tg (° C.) First heating: first heating cycle; for Tg (° C.) Second heating: second heating cycle (intrinsic Tg in dry state)
Procedure: Modulated differential scanning calorimetry (mDSC) was used to characterize salts of the invention. Solid samples were placed in hermetically sealed aluminum pan with a pinhole. Modulation amplitude of ±0.8° C. with a period of 60 sec was applied to the sample heated at 2° C./min under dried nitrogen purge using TA instruments (New Castle, Del., USA) model 1000.
Heat-cool-heat cycles were applied to allow for moisture evaporation during first heating cycle and to erase thermal history of the sample, which allowed for the determination of the intrinsic glass transition temperature (Tg) in dry state.

Substance | % weight gain ([1]; 55% RH) [%] | Phase transition ([1]; 55% RH) | % weight gain ([1]; 75% RH) [%] | Phase transition ([1]; 75% RH) | Tg (° C.) First heating [2] [°C] | Tg (° C.) Second heating [2] [°C]
bromide | 3.24 | No | 6.0 | Yes | 68 | 68
nicotinate |  | Yes |  | Yes | 19.6 | 36
